Here are results for one molecule from the NIST ThermoML archive (doi:10.1016/j.fluid.2008.04.021).

Each structure is given as a SMILES string. Numbers after ± are expanded uncertainties.

A short description of this data set: excess molar enthalpy (molar enthalpy of mixing); xn = mol fraction of the nth substance listed. To be noted: 298.15 K; Liquid; x2 = 0.

As to `CCCCOCCCC` [dibutyl ether] + FC(F)(F)C(F)(F)C(F)(F)C(F)(F)C(F)(F)C(F)(F)F, the excess molar enthalpy was determined as 0 ± 0.000478 kcal/mol.
